The target in this experiment is T1, NF-κB subunit p65 fused to mKO (donor copy) or mCherry (acceptor copy), Q04206.
T1 chain: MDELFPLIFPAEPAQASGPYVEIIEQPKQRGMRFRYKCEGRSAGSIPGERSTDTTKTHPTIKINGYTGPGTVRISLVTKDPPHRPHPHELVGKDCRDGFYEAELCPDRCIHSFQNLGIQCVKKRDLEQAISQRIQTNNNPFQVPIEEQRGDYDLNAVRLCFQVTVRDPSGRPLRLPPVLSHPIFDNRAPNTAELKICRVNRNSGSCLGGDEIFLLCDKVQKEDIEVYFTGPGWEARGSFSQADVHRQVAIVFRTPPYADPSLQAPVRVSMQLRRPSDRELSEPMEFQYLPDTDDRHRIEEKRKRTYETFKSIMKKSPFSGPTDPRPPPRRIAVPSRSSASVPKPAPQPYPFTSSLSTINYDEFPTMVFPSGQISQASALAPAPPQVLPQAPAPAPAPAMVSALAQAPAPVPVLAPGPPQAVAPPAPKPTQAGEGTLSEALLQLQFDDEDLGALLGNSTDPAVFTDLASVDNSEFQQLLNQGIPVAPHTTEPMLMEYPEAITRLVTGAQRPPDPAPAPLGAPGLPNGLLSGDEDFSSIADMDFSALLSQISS
The experiment is described as follows: FRET or BRET; frequency-domain FLIM of the donor in single living HeLa cells; mKO-p65 donor and mCherry-p65 acceptor, equal amounts of plasmid; control: cells with mKO-p65 only; room temperature. The settings on record: remark: other sources report otherwise.

The values that follow come from PMC1995760.

B1: NF-κB subunit p65 fused to mKO (donor copy) or mCherry (acceptor copy), Q04206 1-551 (natural protein)
chain: T1 chain
Regarding B1, the FRET efficiency based on the phase lifetime was 10%.
